# Source: PubChem BioAssay AID1117280 (The Scripps Research Institute Molecular Screening Center, 2014)
# The entries are a selection whose mix differs from that of the whole data set. Calls of active or inactive are those of the source.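 How the source made its calls: active means mean activation above a set limit taken from the earlier primary screen (cut at about 11% in these data); inactive means the rest.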
# Target: Transthyretin (Homo sapiens) (UniProt P02766)
# Test: TTR transcription activators, retest, confirmation, cell-based, luminescence, SH-SY5Y, triplicate (AID 1117280);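 further: 0% = DMSO-treated cells and 100% = recombinant Lucia luciferase without cells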
# Details: SHSY5Y TTR promoter Gaussia luciferase, at 16.7 µM, hits give high values, 100% = purified Lucia enzyme wells, no cells
row,SMILES,activation
1,CCOP(=O)(Nc1ccccc1)OCC,inactive: 0.15%
2,Cc1ccc(OP(=O)(Nc2nccs2)Oc2ccc(C)cc2)cc1,inactive: -0.45%
